From PMC12836348, “Alanine Mutagenesis Identifies Specific Amino Acids of Nemertide Alpha‑1 Activity and Its Binding to Target Receptors” (Journal of Natural Products, 2025)
“Also recorded” adds a separate entry of the source.

Protein sequences, listed by entry. Tags and fused reporters are not part of them.
UniProt Q14524, whole entry: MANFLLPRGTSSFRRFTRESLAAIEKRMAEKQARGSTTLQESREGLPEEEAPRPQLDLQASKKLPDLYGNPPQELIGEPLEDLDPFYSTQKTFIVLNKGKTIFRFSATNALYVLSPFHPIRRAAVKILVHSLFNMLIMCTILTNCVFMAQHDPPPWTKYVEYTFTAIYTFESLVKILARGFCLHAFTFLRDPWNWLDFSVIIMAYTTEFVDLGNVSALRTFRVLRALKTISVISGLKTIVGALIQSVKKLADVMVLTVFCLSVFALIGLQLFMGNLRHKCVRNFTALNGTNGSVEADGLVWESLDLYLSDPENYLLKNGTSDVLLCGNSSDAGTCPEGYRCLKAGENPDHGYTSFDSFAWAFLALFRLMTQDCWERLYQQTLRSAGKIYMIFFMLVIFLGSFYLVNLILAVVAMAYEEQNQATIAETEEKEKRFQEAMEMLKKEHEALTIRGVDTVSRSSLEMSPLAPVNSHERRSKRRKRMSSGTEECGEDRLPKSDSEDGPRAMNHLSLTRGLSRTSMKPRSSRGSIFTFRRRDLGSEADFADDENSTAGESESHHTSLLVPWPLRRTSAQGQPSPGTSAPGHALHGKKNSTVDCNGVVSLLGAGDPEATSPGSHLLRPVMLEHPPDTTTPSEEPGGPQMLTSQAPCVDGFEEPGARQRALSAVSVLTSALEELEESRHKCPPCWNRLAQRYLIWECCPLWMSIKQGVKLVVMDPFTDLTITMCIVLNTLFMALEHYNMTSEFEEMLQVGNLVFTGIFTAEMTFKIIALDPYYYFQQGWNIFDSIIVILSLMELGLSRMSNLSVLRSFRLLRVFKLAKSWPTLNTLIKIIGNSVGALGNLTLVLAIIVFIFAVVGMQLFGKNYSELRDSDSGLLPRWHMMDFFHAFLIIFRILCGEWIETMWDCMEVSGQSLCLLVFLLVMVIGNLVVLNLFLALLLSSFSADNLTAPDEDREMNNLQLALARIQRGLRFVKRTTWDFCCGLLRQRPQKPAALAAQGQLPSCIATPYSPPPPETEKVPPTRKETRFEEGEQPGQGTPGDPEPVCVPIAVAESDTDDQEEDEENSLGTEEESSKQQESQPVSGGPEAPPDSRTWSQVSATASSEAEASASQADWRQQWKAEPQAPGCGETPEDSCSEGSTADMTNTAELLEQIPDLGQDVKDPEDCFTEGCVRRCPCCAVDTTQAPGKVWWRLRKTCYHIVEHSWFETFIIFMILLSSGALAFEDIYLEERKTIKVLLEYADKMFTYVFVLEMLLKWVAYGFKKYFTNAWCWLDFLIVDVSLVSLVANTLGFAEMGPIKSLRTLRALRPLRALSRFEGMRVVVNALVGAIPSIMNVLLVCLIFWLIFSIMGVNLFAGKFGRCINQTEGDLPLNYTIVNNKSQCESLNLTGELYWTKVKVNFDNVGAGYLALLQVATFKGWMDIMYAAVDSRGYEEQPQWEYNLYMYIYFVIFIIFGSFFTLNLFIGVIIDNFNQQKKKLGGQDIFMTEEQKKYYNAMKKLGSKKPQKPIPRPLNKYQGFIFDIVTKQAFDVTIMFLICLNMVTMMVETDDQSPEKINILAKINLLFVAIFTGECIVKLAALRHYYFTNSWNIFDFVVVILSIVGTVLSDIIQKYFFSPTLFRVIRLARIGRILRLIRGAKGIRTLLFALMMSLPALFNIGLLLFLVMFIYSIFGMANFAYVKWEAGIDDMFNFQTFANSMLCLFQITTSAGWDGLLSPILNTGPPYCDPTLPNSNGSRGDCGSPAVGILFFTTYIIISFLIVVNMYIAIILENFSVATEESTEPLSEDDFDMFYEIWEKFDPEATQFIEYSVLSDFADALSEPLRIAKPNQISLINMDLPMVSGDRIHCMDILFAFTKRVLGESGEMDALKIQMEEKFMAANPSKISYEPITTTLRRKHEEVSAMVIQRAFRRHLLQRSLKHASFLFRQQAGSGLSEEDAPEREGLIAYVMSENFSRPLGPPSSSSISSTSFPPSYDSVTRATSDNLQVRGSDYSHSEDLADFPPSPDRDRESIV
UniProt Q15858, whole entry: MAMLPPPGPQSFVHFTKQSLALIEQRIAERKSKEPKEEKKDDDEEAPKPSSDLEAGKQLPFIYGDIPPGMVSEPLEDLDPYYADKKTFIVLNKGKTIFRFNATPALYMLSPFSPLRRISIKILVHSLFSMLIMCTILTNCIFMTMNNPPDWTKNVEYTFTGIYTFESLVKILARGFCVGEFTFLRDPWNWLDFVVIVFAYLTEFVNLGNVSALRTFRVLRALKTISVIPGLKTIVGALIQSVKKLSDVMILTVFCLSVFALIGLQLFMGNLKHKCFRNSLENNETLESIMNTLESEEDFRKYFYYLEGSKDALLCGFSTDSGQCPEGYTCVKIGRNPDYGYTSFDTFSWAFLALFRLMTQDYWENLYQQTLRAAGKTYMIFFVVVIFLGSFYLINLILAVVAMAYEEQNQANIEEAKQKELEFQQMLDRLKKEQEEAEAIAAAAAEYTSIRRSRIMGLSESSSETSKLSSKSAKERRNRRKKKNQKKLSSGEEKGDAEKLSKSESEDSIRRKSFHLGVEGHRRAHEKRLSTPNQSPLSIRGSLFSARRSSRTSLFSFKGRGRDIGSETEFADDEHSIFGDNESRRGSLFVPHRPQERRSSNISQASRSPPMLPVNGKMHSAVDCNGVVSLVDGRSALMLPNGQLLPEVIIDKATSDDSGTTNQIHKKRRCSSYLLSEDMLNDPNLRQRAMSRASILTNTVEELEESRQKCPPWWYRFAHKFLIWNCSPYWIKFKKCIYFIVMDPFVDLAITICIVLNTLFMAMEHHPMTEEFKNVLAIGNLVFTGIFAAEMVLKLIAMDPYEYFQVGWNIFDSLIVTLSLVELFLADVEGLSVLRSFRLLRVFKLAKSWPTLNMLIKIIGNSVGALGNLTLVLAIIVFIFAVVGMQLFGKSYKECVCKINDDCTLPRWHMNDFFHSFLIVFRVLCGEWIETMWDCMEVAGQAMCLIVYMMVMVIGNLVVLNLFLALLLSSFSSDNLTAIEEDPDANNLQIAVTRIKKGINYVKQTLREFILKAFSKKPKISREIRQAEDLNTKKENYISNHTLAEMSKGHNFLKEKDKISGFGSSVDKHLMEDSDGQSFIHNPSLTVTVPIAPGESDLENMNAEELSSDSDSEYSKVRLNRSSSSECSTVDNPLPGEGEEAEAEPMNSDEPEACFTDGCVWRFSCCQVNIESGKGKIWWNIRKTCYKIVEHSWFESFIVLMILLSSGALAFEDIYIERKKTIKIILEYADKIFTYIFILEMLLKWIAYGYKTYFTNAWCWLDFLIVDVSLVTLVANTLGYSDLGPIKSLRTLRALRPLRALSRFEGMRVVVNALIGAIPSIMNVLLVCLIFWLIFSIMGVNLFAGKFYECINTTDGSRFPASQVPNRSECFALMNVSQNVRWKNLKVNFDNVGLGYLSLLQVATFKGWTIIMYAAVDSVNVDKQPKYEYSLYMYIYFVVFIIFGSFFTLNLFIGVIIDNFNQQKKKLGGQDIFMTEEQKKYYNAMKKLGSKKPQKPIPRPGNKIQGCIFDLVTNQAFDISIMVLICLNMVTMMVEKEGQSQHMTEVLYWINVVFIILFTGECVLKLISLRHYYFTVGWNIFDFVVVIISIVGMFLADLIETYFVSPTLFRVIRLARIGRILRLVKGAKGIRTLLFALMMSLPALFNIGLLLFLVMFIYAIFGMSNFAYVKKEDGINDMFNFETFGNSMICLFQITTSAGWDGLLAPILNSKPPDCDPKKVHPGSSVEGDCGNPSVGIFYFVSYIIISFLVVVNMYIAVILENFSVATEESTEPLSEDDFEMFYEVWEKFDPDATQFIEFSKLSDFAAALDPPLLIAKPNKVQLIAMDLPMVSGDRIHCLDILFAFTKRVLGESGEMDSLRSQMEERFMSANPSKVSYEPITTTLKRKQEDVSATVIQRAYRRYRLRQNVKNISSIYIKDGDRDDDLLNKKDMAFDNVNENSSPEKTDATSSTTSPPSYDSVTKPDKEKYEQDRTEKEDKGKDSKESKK
UniProt P04775, whole entry: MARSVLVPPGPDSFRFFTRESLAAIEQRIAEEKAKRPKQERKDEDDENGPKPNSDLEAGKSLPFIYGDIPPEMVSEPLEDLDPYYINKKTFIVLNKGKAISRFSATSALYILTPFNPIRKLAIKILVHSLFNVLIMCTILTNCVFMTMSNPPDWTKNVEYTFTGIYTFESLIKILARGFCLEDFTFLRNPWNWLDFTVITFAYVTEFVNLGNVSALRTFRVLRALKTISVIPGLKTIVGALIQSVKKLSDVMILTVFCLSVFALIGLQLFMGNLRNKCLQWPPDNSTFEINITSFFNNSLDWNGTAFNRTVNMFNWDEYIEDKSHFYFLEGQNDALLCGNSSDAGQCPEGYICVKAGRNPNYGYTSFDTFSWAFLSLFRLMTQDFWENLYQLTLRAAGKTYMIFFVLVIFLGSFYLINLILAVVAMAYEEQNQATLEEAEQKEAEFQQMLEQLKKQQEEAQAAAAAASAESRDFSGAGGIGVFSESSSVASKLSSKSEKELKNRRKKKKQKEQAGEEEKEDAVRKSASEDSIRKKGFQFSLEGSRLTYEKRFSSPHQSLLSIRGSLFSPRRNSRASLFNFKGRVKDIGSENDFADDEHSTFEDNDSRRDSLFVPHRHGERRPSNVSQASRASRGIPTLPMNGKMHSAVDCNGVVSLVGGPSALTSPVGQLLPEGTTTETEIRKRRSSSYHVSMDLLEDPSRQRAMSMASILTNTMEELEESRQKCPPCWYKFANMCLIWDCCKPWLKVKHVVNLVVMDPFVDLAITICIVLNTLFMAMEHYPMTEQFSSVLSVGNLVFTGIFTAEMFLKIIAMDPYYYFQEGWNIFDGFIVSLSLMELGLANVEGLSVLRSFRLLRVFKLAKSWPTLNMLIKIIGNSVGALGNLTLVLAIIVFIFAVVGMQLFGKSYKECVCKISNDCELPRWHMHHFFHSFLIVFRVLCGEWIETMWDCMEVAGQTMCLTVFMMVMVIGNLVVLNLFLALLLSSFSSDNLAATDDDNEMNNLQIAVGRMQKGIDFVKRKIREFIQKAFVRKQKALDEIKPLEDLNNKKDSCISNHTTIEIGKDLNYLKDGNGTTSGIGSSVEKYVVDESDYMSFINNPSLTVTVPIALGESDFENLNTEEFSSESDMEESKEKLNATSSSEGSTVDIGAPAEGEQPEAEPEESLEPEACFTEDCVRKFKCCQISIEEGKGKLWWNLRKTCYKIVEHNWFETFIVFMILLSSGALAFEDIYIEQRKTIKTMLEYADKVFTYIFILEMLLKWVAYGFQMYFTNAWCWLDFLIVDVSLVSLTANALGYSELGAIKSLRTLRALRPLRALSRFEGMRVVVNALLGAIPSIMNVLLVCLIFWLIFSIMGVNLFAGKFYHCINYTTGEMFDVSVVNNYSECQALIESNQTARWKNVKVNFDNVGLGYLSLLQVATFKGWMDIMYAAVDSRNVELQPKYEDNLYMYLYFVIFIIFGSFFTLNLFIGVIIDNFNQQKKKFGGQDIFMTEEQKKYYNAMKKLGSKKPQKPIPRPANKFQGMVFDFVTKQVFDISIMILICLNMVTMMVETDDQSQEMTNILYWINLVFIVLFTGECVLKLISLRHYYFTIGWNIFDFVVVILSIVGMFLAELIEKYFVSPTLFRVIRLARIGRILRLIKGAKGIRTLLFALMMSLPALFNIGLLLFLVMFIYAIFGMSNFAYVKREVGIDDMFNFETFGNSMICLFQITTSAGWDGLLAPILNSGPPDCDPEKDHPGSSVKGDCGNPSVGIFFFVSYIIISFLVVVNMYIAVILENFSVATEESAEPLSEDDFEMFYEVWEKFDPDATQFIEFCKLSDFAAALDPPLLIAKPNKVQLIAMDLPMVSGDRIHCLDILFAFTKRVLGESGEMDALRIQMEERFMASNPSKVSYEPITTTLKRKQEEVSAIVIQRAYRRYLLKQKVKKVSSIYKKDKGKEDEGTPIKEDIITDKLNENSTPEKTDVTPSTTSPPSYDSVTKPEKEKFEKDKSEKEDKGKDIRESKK

Tests used:
hNaV1.5 = molecular target: T1, hNaV1.5 (Homo sapiens, UniProt Q14524); assay: Two-electrode voltage clamp, Nav1.5 in Xenopus laevis oocytes; assay type: cell-based; settings: ex vivo, two-electrode voltage clamp in Xenopus laevis oocytes, Hill fit, n ≥ 3; highest tested concentration 50 μM
T1 construct: expressed in transfected cells; host or cells: Xenopus laevis oocytes (cRNA injection)
Procedure: (§1) For the expression of NaV channels (hNav1.1, rNaV1.2, rNaV1.3, rNaV1.4, hNaV1.5, hNaV1.6, hNav1.7, and the insect channel BgNaV1) in Xenopus laevis oocytes, the linearized plasmids were transcribed using the T7 or SP6 mMESSAGE-mMACHINE transcription kit (Ambion, Carlsbad, CA, USA). The harvesting of stage V and VI oocytes from an anaesthetized female X. laevis frog was described previously. , Oocytes were injected with 50 nL of cRNA at a concentration of 1 ng/nL using a microinjector (Drummond Scientific, Broomall, PA, USA). The oocytes were incubated in a solution containing 96 mM NaCl, 2 mM KCl, 1.8 mM CaCl2, 2 mM MgCl2, and 5 mM HEPES (pH 7.4), supplemented with 50 mg/L gentamycin sulfate. Two-electrode voltage-clamp recordings were performed at room temperature (18–22 °C) using a Geneclamp 500 amplifier (Molecular Devices, Downingtown, PA, USA) controlled by a pClamp data acquisition system (Axon Instruments, Union City, CA, USA). Whole-cell currents from oocytes were recorded 1–4 days after injection. The bath solution composition was 96 mM NaCl, 2 mM KCl, 1.8 mM CaCl2, 2 mM MgCl2, and 5 mM HEPES (pH 7.4). Voltage and current electrodes were filled with 3 M KCl. The resistances of both electrodes were kept between 0.8 and 1.5 MΩ. The elicited Nav channel currents were filtered at 1 kHz and sampled at 20 kHz by using a four-pole low-pass Bessel filter. Leak subtraction was performed using a −P/4 protocol. For the electrophysiological analysis of toxins, a series of protocols was applied from a holding potential of −90 mV with a start-to-start interval of 0.2 Hz. Sodium current traces were evoked by 100 ms depolarizations to V max (the voltage corresponding to maximum sodium current in control conditions).
(§2) To assess the concentration–response relationships, data were fitted with the Hill equation: y = 100/[1 + (EC50/[toxin])^ h ], where y is the amplitude of the toxin-induced effect (y = I 30 ms/I peak where I 30 ms is the current value at 30 ms in the presence of toxin and I peak is the peak current amplitude in control conditions), EC50 is the toxin concentration at half-maximal efficacy, [toxin] is the toxin concentration, and h is the Hill coefficient. Potassium and calcium currents were evoked by a 500 ms depolarization to the voltage corresponding to the maximal activation of the channels in control conditions from a holding potential of −90 mV. Elicited currents were sampled at 1 kHz and filtered at 0.5 kHz. For nAChR experiments, the oocytes were clamped at a holding potential of −70 mV and continuously superfused with ND96 via gravity-fed tubes at 0.1–0.2 mL min^–1, with 5 min incubation times for the bath-applied peptides. ACh was applied via gravity-fed tubes until a peak current amplitude was obtained (1–3 s), with 1–2 min washout periods between applications. The nAChR were gated by a particular time duration pulse of ACh for the respective nAChR subtype at 2 mL min^–1. Data were sampled at 500 Hz and filtered at 200 Hz. ASIC1a currents were measured in ND96 solutions at a pH of 7.4 and 4.5, at a holding potential of −70 mV during 400 s, and the data were filtered at 20 Hz. EnaC currents were measured by clamping oocytes at a holding potential of −60 mV and perfusing with low- (1 mM) and high- (96 mM) sodium ND96. Opioid currents were measured by clamping the potential to −70 mV and changing the perfusion solution from ND96 to high-potassium (HK) solution composed of 96 mM KCl, 2 mM NaCl, 1 mM MgCl2, 1.8 mM CaCl2, and 5 mM HEPES, with a final pH of 7.5. The HK-evoked increase in inward K^+ currents represents a “basal” K^+ current (IK, basal). In the presence of HK, 0.2 μM morphine was applied to oocytes and then washed out by HK. TRPV1 and TRPA1 currents were continuously monitored in a perfusing ND96 solution, following a protocol at −90 mV for 400 s. The sampling rate was set at 100 Hz, and the signals were filtered at 20 Hz. One μM capsaicin and 10 μM capsazepine were used for TRPV1. […]

rNaV1.3 = molecular target: T2, rNaV1.3 (Rattus norvegicus, UniProt P08104); assay: Two-electrode voltage clamp, Nav1.3 in Xenopus laevis oocytes; assay type: cell-based; settings: ex vivo, Hill fit, n ≥ 3, highest tested concentration 50 μM
T2 construct: expressed in transfected cells; host or cells: Xenopus laevis oocytes (cRNA injection)

BgNav1 = assay: Two-electrode voltage clamp, BgNav1 expressed in Xenopus laevis oocytes; assay type: cell-based, Blattella germanica; settings: ex vivo, I30ms/Ipeak, Hill fit, n ≥ 3, highest tested concentration 50 μM
rNaV1.4 = molecular target: T3, rNaV1.4 (Rattus norvegicus, UniProt P15390); assay: Two-electrode voltage clamp, Nav1.4 in Xenopus laevis oocytes; assay type: cell-based; settings: ex vivo, Hill fit, n ≥ 3, highest tested concentration 50 μM
T3 construct: expressed in transfected cells; host or cells: Xenopus laevis oocytes (cRNA injection)

hNaV1.6 = molecular target: T4, hNaV1.6 (Homo sapiens, UniProt Q9UQD0); assay: Two-electrode voltage clamp, Nav1.6 in Xenopus laevis oocytes; assay type: cell-based; settings: two-electrode voltage clamp in Xenopus laevis oocytes, Hill fit, n ≥ 3; highest tested concentration 50 μM
T4 construct: expressed in transfected cells; host or cells: Xenopus laevis oocytes (cRNA injection)
Procedure: as §1, §2

hNav1.7 = molecular target: T5, hNav1.7 (Homo sapiens, UniProt Q15858); assay: Two-electrode voltage clamp, Nav1.7 in Xenopus laevis oocytes; assay type: cell-based; settings: alpha-1 EC50 75.6 ± 33.9 nM
T5 construct: expressed in transfected cells; host or cells: Xenopus laevis oocytes (cRNA injection)

rNaV1.2 = molecular target: T6, rNaV1.2 (Rattus norvegicus, UniProt P04775); assay: Two-electrode voltage clamp, Nav1.2 in Xenopus laevis oocytes; assay type: cell-based; settings: Hill fit, n ≥ 3, highest tested concentration 50 μM
T6 construct: expressed in transfected cells; host or cells: Xenopus laevis oocytes (cRNA injection)

SMILES	EC50 (hNaV1.5)	EC50 (rNaV1.3)	EC50 (BgNav1)	EC50 (rNaV1.4)	EC50 Nav1.3 (rNaV1.3)	EC50 Nav1.6 (hNaV1.6)	EC50 Nav1.4 (rNaV1.4)	EC50 Nav1.5 (hNaV1.5)	times lower activity on Nav1.7 than alpha-1 (hNav1.7)	EC50 Nav1.2 (rNaV1.2)
CC[C@H](C)[C@@H]1NC(=O)[C@@H](NC(=O)CN)CSSC[C@@H]2NC(=O)[C@@H]3CSSC[C@@H](C(=O)N[C@@H](CC(N)=O)C(=O)N4C[C@H](O)C[C@H]4C(=O)N4C[C@H](O)C[C@H]4C(=O)N[C@@H](CC(N)=O)C(=O)N[C@@H](CCC(N)=O)C(=O)O)NC(=O)[C@H](CCCCN)NC(=O)[C@H](Cc4ccccc4)NC(=O)[C@H](CC(N)=O)NC(=O)[C@H](Cc4c[nH]c5ccccc45)NC(=O)CNC(=O)[C@H](CSSC[C@H](NC(=O)[C@H](CCCCN)NC(=O)[C@H](CO)NC(=O)CNC(=O)[C@H]([C@@H](C)O)NC(=O)[C@H](C)NC1=O)C(=O)N[C@@H]([C@@H](C)O)C(=O)N[C@@H](CC(C)C)C(=O)N[C@@H](CO)C(=O)N[C@@H](CCCCN)C(=O)NCC(=O)N3)NC(=O)[C@H](CC(N)=O)NC(=O)[C@H](CCCCN)NC(=O)[C@H]([C@@H](C)O)NC2=O [Peptide F8K]	224 ± 6.33 nM	467 ± 64.9 nM	91.9 ± 8.4 nM	1200 ± 147 nM						
CC[C@H](C)[C@@H]1NC(=O)[C@@H](NC(=O)CN)CSSC[C@@H]2NC(=O)[C@@H]3CSSC[C@@H](C(=O)N[C@@H](CC(N)=O)C(=O)N4C[C@H](O)C[C@H]4C(=O)N4C[C@H](O)C[C@H]4C(=O)N[C@@H](CC(N)=O)C(=O)N[C@@H](CCC(N)=O)C(=O)O)NC(=O)[C@H](CCCCN)NC(=O)[C@H](Cc4ccccc4)NC(=O)[C@H](CC(N)=O)NC(=O)[C@H](Cc4c[nH]c5ccccc45)NC(=O)CNC(=O)[C@H](CSSC[C@H](NC(=O)[C@H](Cc4ccccc4)NC(=O)[C@H](CO)NC(=O)CNC(=O)[C@H]([C@@H](C)O)NC(=O)[C@H](C)NC1=O)C(=O)N[C@@H]([C@@H](C)O)C(=O)N[C@@H](CC(C)C)C(=O)N[C@@H](CO)C(=O)N[C@@H](CCCCN)C(=O)NCC(=O)N3)NC(=O)[C@H](C)NC(=O)[C@H](CCCCN)NC(=O)[C@H]([C@@H](C)O)NC2=O [Peptide N19A]			19.2 ± 7.3 nM		no detectable activity	inactive at the tested concentration	no detectable activity			
CC[C@H](C)[C@@H]1NC(=O)[C@@H](NC(=O)CN)CSSC[C@@H]2NC(=O)[C@@H]3CSSC[C@@H](C(=O)N[C@@H](CC(N)=O)C(=O)N4C[C@H](O)C[C@H]4C(=O)N4C[C@H](O)C[C@H]4C(=O)N[C@@H](C)C(=O)N[C@@H](CCC(N)=O)C(=O)O)NC(=O)[C@H](CCCCN)NC(=O)[C@H](Cc4ccccc4)NC(=O)[C@H](CC(N)=O)NC(=O)[C@H](Cc4c[nH]c5ccccc45)NC(=O)CNC(=O)[C@H](CSSC[C@H](NC(=O)[C@H](Cc4ccccc4)NC(=O)[C@H](CO)NC(=O)CNC(=O)[C@H]([C@@H](C)O)NC(=O)[C@H](C)NC1=O)C(=O)N[C@@H]([C@@H](C)O)C(=O)N[C@@H](CC(C)C)C(=O)N[C@@H](CO)C(=O)N[C@@H](CCCCN)C(=O)NCC(=O)N3)NC(=O)[C@H](CC(N)=O)NC(=O)[C@H](CCCCN)NC(=O)[C@H]([C@@H](C)O)NC2=O [Peptide N30A]			138 ± 6.2 nM					in the same range as alpha-1	lower activity by an order of magnitude	
CC[C@H](C)[C@@H]1NC(=O)[C@@H](NC(=O)CN)CSSC[C@@H]2NC(=O)[C@@H]3CSSC[C@@H](C(=O)N[C@@H](CC(N)=O)C(=O)N4C[C@H](O)C[C@H]4C(=O)N4C[C@H](O)C[C@H]4C(=O)N[C@@H](CC(N)=O)C(=O)N[C@@H](CCC(N)=O)C(=O)O)NC(=O)[C@H](CCCCN)NC(=O)[C@H](Cc4ccccc4)NC(=O)[C@H](CC(N)=O)NC(=O)[C@H](Cc4c[nH]c5ccccc45)NC(=O)CNC(=O)[C@H](CSSC[C@H](NC(=O)[C@H](Cc4ccccc4)NC(=O)[C@H](CO)NC(=O)CNC(=O)[C@H](C)NC(=O)[C@H](C)NC1=O)C(=O)N[C@@H]([C@@H](C)O)C(=O)N[C@@H](CC(C)C)C(=O)N[C@@H](CO)C(=O)N[C@@H](CCCCN)C(=O)NCC(=O)N3)NC(=O)[C@H](CC(N)=O)NC(=O)[C@H](CCCCN)NC(=O)[C@H]([C@@H](C)O)NC2=O [Peptide T5A]			45.6 ± 3.7 nM			slightly higher activity		in the same range as alpha-1		activity in the same range as alpha-1
CC[C@H](C)[C@@H]1NC(=O)[C@@H](NC(=O)CN)CSSC[C@@H]2NC(=O)[C@@H]3CSSC[C@@H](C(=O)N[C@@H](CC(N)=O)C(=O)N4C[C@H](O)C[C@H]4C(=O)N4C[C@H](O)C[C@H]4C(=O)N[C@@H](CC(N)=O)C(=O)N[C@@H](CCC(N)=O)C(=O)O)NC(=O)[C@H](CCCCN)NC(=O)[C@H](Cc4ccccc4)NC(=O)[C@H](CC(N)=O)NC(=O)[C@H](Cc4c[nH]c5ccccc45)NC(=O)CNC(=O)[C@H](CSSC[C@H](NC(=O)[C@H](Cc4ccccc4)NC(=O)[C@H](CO)NC(=O)CNC(=O)[C@H]([C@@H](C)O)NC(=O)[C@H](C)NC1=O)C(=O)N[C@@H]([C@@H](C)O)C(=O)N[C@@H](CC(C)C)C(=O)N[C@@H](CO)C(=O)N[C@@H](CCCCN)C(=O)NCC(=O)N3)NC(=O)[C@H](CC(N)=O)NC(=O)[C@H](CCCCN)NC(=O)[C@H](C)NC2=O [Peptide T17A]			825.9 ± 4 nM		no detectable activity		no detectable activity	no detectable activity; also recorded: inactive at the tested concentration		
CC[C@H](C)[C@@H]1NC(=O)[C@@H](NC(=O)CN)CSSC[C@@H]2NC(=O)[C@@H]3CSSC[C@@H](C(=O)N[C@@H](CC(N)=O)C(=O)N4C[C@H](O)C[C@H]4C(=O)N4C[C@H](O)C[C@H]4C(=O)N[C@@H](CC(N)=O)C(=O)N[C@@H](CCC(N)=O)C(=O)O)NC(=O)[C@H](CCCCN)NC(=O)[C@H](Cc4ccccc4)NC(=O)[C@H](CC(N)=O)NC(=O)[C@H](C)NC(=O)CNC(=O)[C@H](CSSC[C@H](NC(=O)[C@H](Cc4ccccc4)NC(=O)[C@H](CO)NC(=O)CNC(=O)[C@H]([C@@H](C)O)NC(=O)[C@H](C)NC1=O)C(=O)N[C@@H]([C@@H](C)O)C(=O)N[C@@H](CC(C)C)C(=O)N[C@@H](CO)C(=O)N[C@@H](CCCCN)C(=O)NCC(=O)N3)NC(=O)[C@H](CC(N)=O)NC(=O)[C@H](CCCCN)NC(=O)[C@H]([C@@H](C)O)NC2=O [Peptide W22A]			2000 ± 188 nM		no detectable activity	inactive at the tested concentration	no detectable activity	no detectable activity; also recorded: inactive at the tested concentration		No activity
